According to US20070004634A1 (published 2007):

Target: T1, His-tagged soluble recombinant human IGF-IR (srhIGF-1R-his) (human, UniProt P08069 31-935)
T1 construct: extracellular domain; Bought construct; not shown: His tag
Test: ALPHAScreen competition against b-hIGF-1 on srhIGF-1R-his

IC50: 7.1 µM
Binder: GRVDWLQRNANFYDWFVAELG [S175]
